# Ab-91 heavy chain CDR variants: yeast mating affinities

Values reported by Engelhart et al. 2022, doi:10.1038/s41597-022-01779-4 (FLAb copy).

Antigen: PDVDLGDISGINAS, a 14-residue peptide of the SARS-CoV-2 spike HR2 region.

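Phage display of a naive human antibody library on the peptide gave the parent. Variants in AAYL51 differ from the parent at up to three CDR positions; double and triple changes were sampled at random. The assay is AlphaSeq: two haploid yeast populations carry antibody and antigen on their surface. Pairs that bind mate more often; barcode pairs of the diploids are counted by sequencing. Scores were corrected for input abundance and mapped to Kd with protein pairs of known affinity run in the same pool. The assay was run in three technical replicates.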

Each scFv is VL, a (GGGGS)3 linker, VH, as in the parent Ab-91, and differs from it in the CDRs of the heavy chain only.
VL: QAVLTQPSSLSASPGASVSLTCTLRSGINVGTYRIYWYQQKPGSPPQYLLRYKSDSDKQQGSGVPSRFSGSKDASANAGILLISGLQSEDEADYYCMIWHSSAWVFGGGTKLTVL
VH: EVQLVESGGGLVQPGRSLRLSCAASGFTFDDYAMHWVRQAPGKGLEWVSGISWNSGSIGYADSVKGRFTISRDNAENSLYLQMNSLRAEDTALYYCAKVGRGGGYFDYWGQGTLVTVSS

The parent's heavy chain CDRs are GFTFDDYAMH, GISWNSGSIGYADSVK, VGRGGGYFDY; each variant's own CDRs replace them letter for letter. Numbers give log10(Kd / nM), so 0 is 1 nM and 3 is 1 µM. Smaller is tighter. Replicates are averaged; those with no signal do not enter the mean. A pair that was not seen in that replicate is written "n.d."; this usually means weak binding, but a binder can also be missed. In this assay the parent's reference entry averaged 1.86; its copy inside this library read 0.88.

CDR-H1 | CDR-H2 | CDR-H3 | log10 Kd (nM) by replicate | mean, log10 nM | signal with controls
GFTFDDYAMH | GIDWNWGSIWYADSVK | VGRGGGYFDY | 4.04 n.d. n.d. | 4.04 | 0/9
GFTADDIAMH | GISWNSGSIGYSDSVK | VGRGGGYFDY | n.d. n.d. n.d. | n.d. | 0/9
GFTFDDYAMH | GISWNSHSIGYCDSVK | VGRGGGYFIY | n.d. n.d. n.d. | n.d. | 0/9
GFTFDDVAMH | GIDWNSGSIGYADSVK | GGRGGGYFDY | n.d. n.d. n.d. | n.d. | 1/9 (2.45)
GWTFDDYAMH | GISWNSGSIGYADSVK | NGRGGVYFDY | 4.48 n.d. 3.86 | 4.17 | 1/9 (4.29)
GFTFDDYAMH | GISWNSGSIGYAESWK | WGRGGGYFDY | 3.26 3.41 3.37 | 3.35 | 4/9 (4.76)
GFTFNDYAMH | GISWNSGSYGYADSVK | VGRGGYYFDY | 2.37 2.43 1.15 | 1.98 | 3/9 (3.79)
GFTFDDYYMH | RISWNSGSIGYADSVK | VGRGSGYFDY | n.d. n.d. 3.92 | 3.92 | 3/9 (4.57)
KFTLDDIAMH | GISWNSGSIGYADSVK | VGRGGGYFDY | n.d. 5.51 n.d. | 5.51 | 5/9 (4.76)
GFVRDDYAMH | GISWNSGSIGYADSVK | VGRGGGYFVY | n.d. n.d. n.d. | n.d. | 2/9 (4.41)
LFTFDDYAMH | GISWKSGSIGYADSVK | VGRGGAYFDY | 3.26 2.51 n.d. | 2.88 | 0/9
GFTFDDYAMH | GLSWNSESIGYADSVK | VSRGGGYFDY | n.d. n.d. n.d. | n.d. | 1/9 (4.58)
GFTFDDYAMG | GISWNSGAIGYADSVK | VGRGGEYFDY | n.d. n.d. n.d. | n.d. | 1/9 (4.46)
GFTFDGYAMH | GISWNSGSIGYADSVK | VGRGGGYFDG | 5.44 4.51 3.88 | 4.61 | 7/9 (4.41)
GFTFDDYAMH | GISINSGSIGNAMSVK | VGRGGGYFDY | n.d. n.d. n.d. | n.d. | 0/9
GFTFDDNAMH | GISWNSGSIGYADSVK | AGRGGGYFGY | 3.84 n.d. n.d. | 3.84 | 1/9 (4.16)
GFTFADYAMH | GISWNSGSIGYADSVK | VARGDGYFDY | n.d. n.d. n.d. | n.d. | 0/9
GFTFDDYAMH | GISWNSGHIGYADSVK | VGRGGFYFDY | 6.15 5.63 n.d. | 5.89 | 2/9 (4.48)
GFTFDDYAMH | VISWNSGSIGYADSVK | VGCWGGYFDY | n.d. n.d. n.d. | n.d. | 0/9
PFTFDDYAMH | GISWNSGSIGYADSVK | VSRGGGYFDY | 4.66 n.d. n.d. | 4.66 | 3/9 (4.60)
GRTFDDYATH | GISWNFGSIGYADSVK | VGRGGGYFDY | 4.29 n.d. n.d. | 4.29 | 1/9 (3.12)
GFTFDDYAMH | GISWNSGSIGYLDSVK | VGRGHGYQDY | 2.58 2.52 1.98 | 2.36 | 5/9 (4.49)
GFTFVDYAMH | GISWNSGSIGYADSVK | VGMQGGYFDY | n.d. n.d. n.d. | n.d. | 0/9
GFTFDDYAMH | WISWNSGSIGYNDSVK | VGRGGAYFDY | 4.92 n.d. n.d. | 4.92 | 4/9 (4.36)
GFTFDDEAMH | GISWNSGSIGAADSVK | VGRGGGYFDY | 3.26 n.d. n.d. | 3.26 | 2/9 (4.00)
GFTFDDYAMH | GISWHSGSVGYADSYK | VGRGGGYFDY | n.d. n.d. 4.73 | 4.73 | 1/9 (4.13)
GFTFDDYAMH | GISWKSGSIGYADSVQ | VGRGGLYFDY | 4.72 n.d. 4.69 | 4.70 | 3/9 (3.48)
GFTFDDKAMH | GISWNSGPIGYADSVK | VGRGGGYFDY | 5.84 5.87 5.14 | 5.62 | 4/9 (5.02)
GFTFDDYAMH | GISWYSKSIGYADSVK | VGRGGGYHDY | n.d. n.d. n.d. | n.d. | 1/9 (3.25)
GFTFDDYAMH | GISWNMGEIGYADSVK | VGRGGGYFDY | 2.66 3.46 2.26 | 2.79 | 0/9
GFTFIDYAMH | GISWNSGSIGYADSVK | VGIGGGYFFY | n.d. n.d. n.d. | n.d. | 0/9
GFTFDDYAMH | GISWNSPSIGYWDSVK | VGRGGGYFDY | n.d. n.d. n.d. | n.d. | 0/9
GFTFDDYAMH | GISWNSGSIGYAGSVK | VDRGGGYFDS | 4.98 n.d. 4.67 | 4.82 | 3/9 (4.46)
GFPFDGYAMH | GISMNSGSIGYADSVK | VGRGGGYFDY | n.d. n.d. n.d. | n.d. | 0/9
GFLFDDYNMH | GISWNSGSIGYADSVK | VQRGGGYFDY | 3.73 n.d. n.d. | 3.73 | 0/9
GFTFAGYAMH | GISWNSGSIGKADSVK | VGRGGGYFDY | n.d. n.d. n.d. | n.d. | 1/9 (4.29)
GFTFDDYANH | GISWNSGSIGYADSVD | VGRGGGYFEY | n.d. 3.65 n.d. | 3.65 | 3/9 (4.47)
GFRFDDYAMH | DISWNSGSIGYADSVK | VGRGGGYFDY | n.d. 3.95 n.d. | 3.95 | 2/9 (5.04)
GFTDQDYAMH | GISWNSGTIGYADSVK | VGRGGGYFDY | 6.14 4.27 n.d. | 5.20 | 6/9 (4.72)

The first 6 entries again:

CDR-H1 | CDR-H2 | CDR-H3 | log10 Kd (nM) by replicate | mean, log10 nM | signal with controls
GFTFDDYAMH | GIDWNWGSIWYADSVK | VGRGGGYFDY | 4.04 n.d. n.d. | 4.04 | 0/9
GFTADDIAMH | GISWNSGSIGYSDSVK | VGRGGGYFDY | n.d. n.d. n.d. | n.d. | 0/9
GFTFDDYAMH | GISWNSHSIGYCDSVK | VGRGGGYFIY | n.d. n.d. n.d. | n.d. | 0/9
GFTFDDVAMH | GIDWNSGSIGYADSVK | GGRGGGYFDY | n.d. n.d. n.d. | n.d. | 1/9 (2.45)
GWTFDDYAMH | GISWNSGSIGYADSVK | NGRGGVYFDY | 4.48 n.d. 3.86 | 4.17 | 1/9 (4.29)
GFTFDDYAMH | GISWNSGSIGYAESWK | WGRGGGYFDY | 3.26 3.41 3.37 | 3.35 | 4/9 (4.76)

Background: pairings of library AAYL51 with three empty control strains gave a value in 21% of cases (median 4.54, 5th percentile 3.26). Values in that range, when seen in few replicates, are hard to tell from nonspecific mating. The control count says in how many pairings with the empty strains this scFv gave a signal, with their mean in brackets.